AlphaSeq binding of Ab-91 heavy chain variants to a spike HR2 peptide

Reference: Engelhart et al. 2022, doi:10.1038/s41597-022-01779-4. File: FLAb, binding data.

Target: peptide PDVDLGDISGINAS, taken from heptad repeat 2 (HR2) of SARS-CoV-2 spike.

The variants keep the light chain, the linker and the frameworks of Ab-91 (scFv order VL, three GGGGS repeats, VH).
VL: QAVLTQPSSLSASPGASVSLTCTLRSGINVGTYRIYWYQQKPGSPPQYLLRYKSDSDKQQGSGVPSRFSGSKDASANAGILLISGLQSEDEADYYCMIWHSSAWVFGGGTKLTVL
VH: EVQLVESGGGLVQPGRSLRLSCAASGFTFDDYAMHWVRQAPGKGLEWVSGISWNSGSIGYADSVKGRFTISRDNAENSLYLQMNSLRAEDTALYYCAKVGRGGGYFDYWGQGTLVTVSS

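The parent was found by panning a naive human phage display library on the peptide. The library (AAYL51) carries one to three amino acid substitutions per variant, with no insertions or deletions. The assay is AlphaSeq: two haploid yeast populations carry antibody and antigen on their surface. Pairs that bind mate more often; barcode pairs of the diploids are counted by sequencing. Read counts were normalised to the haploid input and turned into Kd by a linear fit to BCL2-family pairs of known affinity, for each replicate. Mating was done three times.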

Each variant is given by its three heavy chain CDRs, as the data file delimits them; those of the parent are GFTFDDYAMH, GISWNSGSIGYADSVK, VGRGGGYFDY. Numbers give log10(Kd / nM), so 0 is 1 nM and 3 is 1 µM. Smaller is tighter. The mean shown is taken over the replicates in which the pair was detected. A pair that was not seen in any replicate is written "nd"; this usually means weak binding, but a binder can also be missed. Three control strains display no target. For library AAYL51, 21% of the pairings with them gave a signal, with a median of 4.54 and one signal in twenty below 3.26, so weak values seen in few replicates may be background. Also given: how often the same scFv was detected with the empty control strains.

For GFLFDDYAMH / GISWNSGSNGYADSVK / VGRGGGYLDY, the assay gave 4.29 (2 of 3 replicates; controls 1 of 9).
For GFTFDDAAMH / GISWAFGSIGYADSVK / VGRGGGYFDY, the assay gave nd (0 of 3 replicates; controls 0 of 9).
For GFTFDAYAMH / GISWNSGSIGYADSVK / VGRTKGYFDY, the assay gave 5.74 (3 of 3 replicates; controls 7 of 9).
For GFTYDDYQMH / GISWNSGSIGWADSVK / VGRGGGYFDY, the assay gave nd (0 of 3 replicates; controls 0 of 9).
For GFTFDDKLMH / GISWNSGSIGYADSVK / VMRGGGYFDY, the assay gave 5.05 (1 of 3 replicates; controls 2 of 9).
For GFTFDDYAMH / GISWNSTSIGYADSVK / VYRGGNYFDY, the assay gave nd (0 of 3 replicates; controls 1 of 9).
For GFTFDDYALH / GESWNSGSIGYADSVK / VGRGGGYYDY, the assay gave nd (0 of 3 replicates; controls 0 of 9).
For GFTFQDYAMH / GISWNSGSIGCADSVK / VGRGGHYFDY, the assay gave 3.79 (1 of 3 replicates; controls 0 of 9).
For GFLFDDYAMH / GISENSWSIGYADSVK / VGRGGGYFDY, the assay gave 4.24 (1 of 3 replicates; controls 2 of 9).
For GYTFDDYAMH / GISWNSGSIGYAMSVK / VGRGGGYFDY, the assay gave 3.73 (3 of 3 replicates; controls 0 of 9).
For YFCFDIYAMH / GISWNSGSIGYADSVK / VGRGGGYFDY, the assay gave 4.04 (2 of 3 replicates; controls 0 of 9).
For GFTFDDYANH / GISWNSGSIGYCDSVK / VGRGGSYFDY, the assay gave nd (0 of 3 replicates; controls 1 of 9).
For GFTFDDYAMH / GHSWNSGSIGYAVSVK / VCRGGGYFDY, the assay gave 5.30 (3 of 3 replicates; controls 3 of 9).
For GFTFDDYTMH / GISWPSGSIGYADSVK / VNRGGGYFDY, the assay gave 4.35 (3 of 3 replicates; controls 1 of 9).
For GFTFIDYWMH / GISWNSGSIGYADSVK / VGRSGGYFDY, the assay gave 4.16 (2 of 3 replicates; controls 6 of 9).
For GFTFDVYAMH / GISWNSGSIGYCDSVK / VGRPGGYFDY, the assay gave 4.86 (2 of 3 replicates; controls 3 of 9).
For GFTFPDYAMH / GISWNSGSIGYADSVK / VGRGGGYKDF, the assay gave 1.09 (3 of 3 replicates; controls 0 of 9).
For GFDFDDYAMH / GQHWNSGSIGYADSVK / VGRGGGYFDY, the assay gave 5.62 (3 of 3 replicates; controls 1 of 9).

Further variants, results first:

Result 1.45 (3 of 3 replicates; controls 3 of 9), variant GFTFYDYAMH / GISWNSHSIGYADSVK / VGRGGGYFDA.
Result nd (0 of 3 replicates; controls 0 of 9), variant GFTFDAYAMH / GMSWNSGSIGCADSVK / VGRGGGYFDY.
Result 5.46 (2 of 3 replicates; controls 4 of 9), variant GFTFDDYFMH / GMSWNSGSIGYADSVK / VGRGGGYFSY.
Result 4.43 (1 of 3 replicates; controls 0 of 9), variant GFTFLDYAMH / GISWNSGSIGYADSVK / VGRGSGYEDY.
Result nd (0 of 3 replicates; controls 0 of 9), variant GLTFDDYAMH / GIYWNSGSIGYADSVK / QGRGGGYFDY.
Result 4.62 (1 of 3 replicates; controls 4 of 9), variant GFTFDDYLMH / GISWNSGSIGYADSVK / VGYGGSYFDY.
Result nd (0 of 3 replicates; controls 0 of 9), variant GFTFDDYAMH / GISWNSGSRGYCDSVK / VGRGGIYFDY.
Result nd (0 of 3 replicates; controls 2 of 9), variant GFTFDDYAMH / GIVFNSGSIWYADSVK / VGRGGGYFDY.
Result 4.79 (2 of 3 replicates; controls 4 of 9), variant PFTFDDYAMH / GISWNSGSIWYADSVK / VLRGGGYFDY.
Result 4.33 (2 of 3 replicates; controls 4 of 9), variant GFTFDDYAMH / GISDNFGSIGYADSVK / VGRGGLYFDY.
Result 3.74 (1 of 3 replicates; controls 2 of 9), variant DFQFDDYAMH / GISWNSGSIGYADSVC / VGRGGGYFDY.
Result 4.30 (1 of 3 replicates; controls 3 of 9), variant GFTFDDYATH / GISWNSGSIGYADSVK / VGRGGSYFQY.
Result 4.78 (3 of 3 replicates; controls 4 of 9), variant GFTFDDYAMH / GISWQSGSPGYADSVK / VGRGGGYFDY.
Result 5.54 (1 of 3 replicates; controls 2 of 9), variant GFTFDDYAMH / PISWNCGSIGYADYVK / VGRGGGYFDY.
Result nd (0 of 3 replicates; controls 0 of 9), variant GFTFDDYAMH / GISWNSHSIGYADSNK / VGRGGGYCDY.
Result 5.08 (2 of 3 replicates; controls 1 of 9), variant DFTRDDYAFH / GISWNSGSIGYADSVK / VGRGGGYFDY.
Result nd (0 of 3 replicates; controls 0 of 9), variant GFTFDDYADH / CISWQSGSIGYADSVK / VGRGGGYFDY.
Result nd (0 of 3 replicates; controls 2 of 9), variant LFTFDDVAMH / GISWNSGSIGYTDSVK / VGRGGGYFDY.
Result 2.32 (1 of 3 replicates; controls 1 of 9), variant GFTFDDYAMH / TISWNSGPIGYADSVK / VGRGGGYFDY.

The first 2 entries again:

CDR-H1	CDR-H2	CDR-H3	mean log10 Kd (nM)	detected	signal with controls
GFLFDDYAMH	GISWNSGSNGYADSVK	VGRGGGYLDY	4.29	2 of 3	1 of 9
GFTFDDAAMH	GISWAFGSIGYADSVK	VGRGGGYFDY	nd	0 of 3	0 of 9

Parent in this assay: reference entry 1.86, copy in this library 0.88.